Measured values: patent publication US9808527B2, “Methods and compositions for treating HIV infections” (priority 2006, dated 2017)

Molecular target: T1, CFP- and YFP-tagged HIV-1 protease subunits (Human immunodeficiency virus type 1 group M subtype B, UniProt P12497)
T1 construct: expressed in transfected cells; host or cells: Cos-7
Type: cell-based
Conditions: Cos-7 cells
Procedure: After 72 hr, cultured cells were examined in the FRET-HIV-1 assay system using confocal microscopy Fluoview FV500 confocal laser scanning microscope, and CFP^A/B were determined and plotted. […] The FRET efficiency was determined following acceptor photobleaching as previously described (Bastiaens et al., EMBO 1996; Siegel et al., Science's stke 2000; Firulli et al., Nature genetics, 2005; Szczesna et al., JBC 2003). […] The changes in the CFP and YFP fluorescence intensity in the images of selected regions were examined and quantified using Olympus FV500 Image software system. […] FRET efficiency was determined using the formula: ET=(1−(IDA/ID))×100, where IDA and ID represent the steady-state donor fluorescence in the presence and absence of the acceptor, respectively. […] Ratios of intensities of ECFP fluorescence after photobleaching to ECFP fluorescence prior to photobleaching were determined. […]
Generation of FRET-based HIV-1 expression assay. The basic concepts of the intermolecular fluorescence resonance energy transfer (FRET)-based HIV-1-expression assay (FRET-HIV-1 assay) are shown in FIG. 7. […] A focused laser beam excitation of CFP (triggered by Helium-Cadmium laser) results in rapid energy transfer to YFP, and most of the fluorescence photons are emitted by YFP (Miyawaki et al. Nature 388(6645):882-887 (1997)). […]

CC(C)CN(C[C@@H](O)[C@H](Cc1ccccc1)NC(=O)O[C@H]1CCOC1)S(=O)(=O)c1ccc(N)cc1 [APV, Amprenavir]
inhibition of protease dimerization (1 μM): None | inhibition of protease dimerization (10 μM): none of these 4 PIs inhibited protease dimerization

Like-named read-outs stand apart in the source and are kept apart here.
